{
  "source": "PubChem BioAssay AID620",
  "about": "(Sanford-Burnham Center for Chemical Genomics, 2007)",
  "note": "The list shows a part of the results, in another mix than the full data. The source made the active and inactive calls. Cut-off read from the data, not from the text of the source: active = cytotoxicity above about 50%; inactive = the rest.",
  "data": [
    {"test": "cytotoxicity in HT1080 fibrosarcoma cells, cell-based, fluorescence readout (AID 620);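 note: cells exposed to compound overnight then 4 h with Alamar Blue; 0% = vehicle DMSO and 100% = killing control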", "conditions": "HT1080 viability, at 10 µM, hits give high values", "values": [
      {"smiles": "Cc1cccc(OCC(=O)OC2CN3CCC2CC3)c1", "note": "(configuration not stated)", "cytotoxicity": "inactive: 5.5%"},
      {"smiles": "CCOP1(=S)c2c(C)nn(CCC#N)c2N=C(c2ccccc2F)N1C", "note": "(configuration not stated)", "cytotoxicity": "inactive: 3.9%"},
      {"smiles": "O=P(Nc1nccs1)(c1ccccc1)c1nc2ccccc2s1", "note": "(configuration not stated)", "cytotoxicity": "inactive: -1.1%"},
      {"smiles": "CCOP1(=S)c2c(C)nn(CCC#N)c2N=C(c2ccc(F)cc2)N1C", "note": "(configuration not stated)", "cytotoxicity": "inactive: 20.8%"},
      {"smiles": "Cc1nn(-c2ccccc2)c2c1P(=O)(N1CCOCC1)N(C)C(c1ccccc1)=N2", "note": "(configuration not stated)", "cytotoxicity": "inactive: 4.4%"},
      {"smiles": "O=P1(Nc2ccc(Br)cn2)COc2ccccc2OC1", "cytotoxicity": "inactive: 4.3%"},
      {"smiles": "Cc1ccc(OCC(=O)OC2CN3CCC2CC3)cc1", "note": "(configuration not stated)", "cytotoxicity": "inactive: 0.4%"},
      {"smiles": "O=P1(Nc2ncccn2)COc2ccccc2OC1", "cytotoxicity": "inactive: 29.6%"},
      {"smiles": "Clc1n[nH]nc1-c1nn[nH][15n]1", "cytotoxicity": "inactive: 18.2%"},
      {"smiles": "O=P1(Nc2ccccn2)COc2ccccc2OC1", "cytotoxicity": "inactive: -7.4%"},
      {"smiles": "CC1(CBr)Cn2c(nc3ccccc3c2=O)S1", "note": "(configuration not stated)", "cytotoxicity": "inactive: -9.3%"},
      {"smiles": "O=C(COc1ccccc1)OC1CN2CCC1CC2", "note": "(configuration not stated)", "cytotoxicity": "inactive: -2.1%"},
      {"smiles": "COP1(=S)c2c(C)nn(CCC#N)c2N=C(c2ccc(F)cc2)N1C", "note": "(configuration not stated)", "cytotoxicity": "inactive: -2.1%"},
      {"smiles": "CCC(C)N(CC(C)C)C(=S)SC(NC(C)=O)C(Cl)(Cl)Cl", "note": "(configuration not stated)", "cytotoxicity": "inactive: 1.1%"},
      {"smiles": "ClCCSc1nnc(-c2cccnc2)o1", "cytotoxicity": "inactive: 3.5%"},
      {"smiles": "O=C(OC1CN2CCC1CC2)C12CC3CC(CC(C3)C1)C2", "note": "(configuration not stated)", "cytotoxicity": "inactive: 19.5%"},
      {"smiles": "Oc1ccccc1CNc1ccccn1", "cytotoxicity": "inactive: -5.4%"},
      {"smiles": "Cc1c2non([O-])c-2c(C)[n+](=O)[n+]1[O-]", "cytotoxicity": "inactive: 8%"},
      {"smiles": "CCOP(=O)(Nc1ccccc1)OCC", "cytotoxicity": "inactive: 27.1%"},
      {"smiles": "CCc1nc2c(n1)c1c(non1O)c1c2no[n+]1[O-]", "cytotoxicity": "active: 77.5%"},
      {"smiles": "O=[N+]([O-])c1cccc2n[nH]nc12", "cytotoxicity": "inactive: -1.8%"},
      {"smiles": "CC1CCN(C(=O)Oc2c(Cl)cc(Cl)c3cccnc23)CC1", "cytotoxicity": "inactive: -16.8%"},
      {"smiles": "c1nnnn1CCn1cnnn1", "cytotoxicity": "inactive: 26.5%"},
      {"smiles": "O=P(Nc1nccs1)(c1ccccc1)c1ccccc1", "cytotoxicity": "inactive: 5.1%"},
      {"smiles": "O=C(OC1CN2CCC1CC2)c1cccc(Cl)c1", "note": "(configuration not stated)", "cytotoxicity": "inactive: -4%"},
      {"smiles": "COC(=O)c1cc2c(s1)N=C(c1ccccc1)N(C)P2(=O)N1CCOCC1", "note": "(configuration not stated)", "cytotoxicity": "inactive: 2%"},
      {"smiles": "O=P1(Nc2nc3ccc(Cl)cc3s2)COc2ccccc2O1", "note": "(configuration not stated)", "cytotoxicity": "inactive: 7.7%"}
    ]}
  ]
}
